Results on 2 compounds are retold here after ChEMBL document CHEMBL5370584, “Reprogramming Energy Metabolism with Synthesized PDK Inhibitors Based on Dichloroacetate Derivatives and Targeted Delivery Systems for Enhanced Cancer Therapy” (J Med Chem, 2023).

By UniProt entry, the sequences of proteins in these tests, tags left out. Residues count along the entry.
UniProt Q15118, 29-436 limits assumed: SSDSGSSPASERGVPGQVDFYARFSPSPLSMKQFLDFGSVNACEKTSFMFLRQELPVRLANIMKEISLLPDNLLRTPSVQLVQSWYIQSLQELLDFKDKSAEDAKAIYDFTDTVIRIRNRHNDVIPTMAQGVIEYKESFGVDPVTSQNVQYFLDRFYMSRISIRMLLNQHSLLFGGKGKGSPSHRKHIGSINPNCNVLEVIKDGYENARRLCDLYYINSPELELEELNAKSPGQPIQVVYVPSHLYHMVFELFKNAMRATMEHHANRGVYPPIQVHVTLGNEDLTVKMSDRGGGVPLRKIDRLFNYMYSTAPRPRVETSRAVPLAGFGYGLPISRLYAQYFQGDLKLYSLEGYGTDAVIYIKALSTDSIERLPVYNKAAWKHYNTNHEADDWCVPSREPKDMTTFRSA

In data set [1] the test system is MCF7. The experiment in a line: Antiproliferative activity against human MCF7 cells assessed as inhibition of cell growth incubated for 24 hrs by MTT assay. In general terms: Tetrazolium assays rely on reduction of a dye to a coloured formazan, in cell work by metabolically active cells.
Data set [2] has as its system NB-4. The experiment in a line: Antiproliferative activity against human NB4 cells assessed as inhibition of cell growth incubated for 24 hrs by MTT assay.
Data set [3] deals with COS-7. As to the kind of experiment: Antiproliferative activity against African green monkey COS7 cells assessed as inhibition of cell growth incubated for 24 hrs by MTT assay.
Data set [4] deals with MOLM-13. As to the kind of experiment: Antiproliferative activity against human MOLM-13 cells assessed as inhibition of cell growth incubated for 24 hrs by MTT assay.
The test system of data set [5] is HeLa. The experiment in a line: Antiproliferative activity against human HeLa cells assessed as inhibition of cell growth incubated for 24 hrs by MTT assay.
Data set [6] has as its system 4T1. As to the kind of experiment: Antiproliferative activity against mouse 4T1 cells assessed as inhibition of cell growth incubated for 24 hrs by MTT assay.
Data set [7] has as its target [Pyruvate dehydrogenase (acetyl-transferring)] kinase isozyme 1, mitochondrial (Homo sapiens, UniProt Q15118).

What is called IC50 is the concentration needed to halve the response being measured. The term EC50 denotes the concentration needed to bring the measured effect to its halfway point. As for `Nc1ccccc1[As]1SCCCS1`, the IC50 in data set [1] turned out to be 1370 nM; in data set [2], 390 nM; in data set [3] it was 1540 nM; in data set [4], 410 nM; in data set [5], 280 nM; in data set [6], 870 nM. The compound also came in with an EC50 in data set [7] of 17000 nM.

As to `Nc1ccc([As]2SCCCS2)cc1`, the IC50 amounted to 1860 nM in data set [1]; 1390 nM in data set [2]; 6090 nM in data set [3]; 580 nM in data set [4]; 1100 nM in data set [5]; 1670 nM in data set [6]. This compound showed an EC50 in data set [7] of 12000 nM.
